Data on 1 compound can be found in US12544366B2, “Combination of endocannabinoid and mTOR inhibitors in the treatment of neuroendocrine neoplasms” (HADASIT MEDICAL RESEARCH SERVICES AND DEVELOPMENT LTD., priority 2022, dated 2026).

The test system of this assay is lung NCI-H727 tumor xenograft. The assay is described as follows: Subcutaneous NEN xenograft tumor model. Conditions: day 23; IP injections; control PBS reached 400%.

Turning to `Cc1c(C(=O)NN2CCCCC2)nn(-c2ccc(Cl)cc2Cl)c1-c1ccc(I)cc1` [AM251], the “tumor volume versus initial tumor size (100% at baseline)” value is reported as 250%.
